# According to ChEMBL document CHEMBL1144535, “3D pharmacophore based virtual screening of T-type calcium channel blockers” (Bioorg Med Chem, 2007):
# Test system: HEK293
# Assay: Selectivity for alpha1G T-type calcium channel over alpha-1B N-type calcium channel expressed in HEK293 cells
# Format: cell-based
# Conditions: Homo sapiens
row,Compound,Selectivity index
1,O=C(NCCCN1CCCC1)c1ccc2c(=O)n(Cc3ccc(Cl)cc3)c(=S)[nH]c2c1,14.8
2,CC1CCN(CCCNC(=O)c2ccc3c(=O)n(Cc4ccc(Cl)cc4)c(=S)[nH]c3c2)CC1,5.8
3,CCC1CCCCN1CCCNC(=O)c1ccc2c(=O)n(Cc3ccc(Cl)cc3)c(=S)[nH]c2c1 (stereo not given),21
4,CCN1CCN(CCCNC(=O)c2ccc3c(=O)n(Cc4ccc(Cl)cc4)c(=S)[nH]c3c2)CC1,2.8
5,O=C(NCCCN1CCCCC1)c1ccc2c(=O)n(Cc3ccc(Cl)cc3)c(=S)[nH]c2c1,3.9
